This note sets out measurements from ChEMBL document CHEMBL5252580, “Ionization and lipophilicity in nonpolar media mimicking the cell membrane interior” (Bioorg Med Chem, 2023).

This series can be described thus: Lipophilicity, log P of the compound in octanol/water system by potentiometric titration method. In kind it is physicochemical.

Consider `CC(C)Cc1ccc(C(C)C(=O)O)cc1` (stereo unspecified) [IBUPROFEN], for which the logP worked out at 4.
